Laboratory results from ChEMBL document CHEMBL1130430, “Assessment of solvation effects on calculated binding affinity differences: trypsin inhibition by flavonoids as a model system for congeneric series” (J Med Chem, 1997).

Biological target: T1, Serine protease 1 (Bos taurus, UniProt P00760)
T1 sequence (P00760 whole entry): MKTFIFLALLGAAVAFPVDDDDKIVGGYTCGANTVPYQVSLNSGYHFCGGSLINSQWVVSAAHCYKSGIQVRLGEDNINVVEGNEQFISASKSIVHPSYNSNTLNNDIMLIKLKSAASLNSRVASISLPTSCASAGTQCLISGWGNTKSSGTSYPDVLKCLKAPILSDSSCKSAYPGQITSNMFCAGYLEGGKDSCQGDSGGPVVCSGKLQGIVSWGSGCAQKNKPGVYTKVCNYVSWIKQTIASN
Assay: Inhibitory concentration of the compounds against Bovine trypsin enzyme.

Structure (SMILES): O=c1c(O)c(-c2ccc(O)c(O)c2)oc2cc(O)cc(O)c12 [QUERCETIN]
- IC50: 7.1 µM
